Drawing on ChEMBL document CHEMBL3286361, “Design and discovery of flavonoid-based HIV-1 integrase inhibitors targeting both the active site and the interaction with LEDGF/p75” (Bioorg Med Chem, 2014), this text covers selectivity ratio for one compound.

The nature of the series: Therapeutic index, ratio of CC50 for human C8166 cells to EC50 for HIV-1 3B infected in human C8166 cells. The format is cell-based. The conditions noted are these: HIV-1 3B infected C8166 cells, read-out: Ratio CC50/EC50.

Take `O=c1cc(-c2ccccc2)oc2cc(O)c(O)c(O)c12` [BAICALEIN]: the selectivity ratio came to 18.
